Consider 13 compounds from ChEMBL document CHEMBL4828761, “Development and crystallography-aided SAR studies of multifunctional BuChE inhibitors and 5-HT6R antagonists with β-amyloid anti-aggregation properties” (Eur J Med Chem, 2021).

The chains behind the UniProt entries cited, without tags or fusion partners.
UniProt P06276, whole entry: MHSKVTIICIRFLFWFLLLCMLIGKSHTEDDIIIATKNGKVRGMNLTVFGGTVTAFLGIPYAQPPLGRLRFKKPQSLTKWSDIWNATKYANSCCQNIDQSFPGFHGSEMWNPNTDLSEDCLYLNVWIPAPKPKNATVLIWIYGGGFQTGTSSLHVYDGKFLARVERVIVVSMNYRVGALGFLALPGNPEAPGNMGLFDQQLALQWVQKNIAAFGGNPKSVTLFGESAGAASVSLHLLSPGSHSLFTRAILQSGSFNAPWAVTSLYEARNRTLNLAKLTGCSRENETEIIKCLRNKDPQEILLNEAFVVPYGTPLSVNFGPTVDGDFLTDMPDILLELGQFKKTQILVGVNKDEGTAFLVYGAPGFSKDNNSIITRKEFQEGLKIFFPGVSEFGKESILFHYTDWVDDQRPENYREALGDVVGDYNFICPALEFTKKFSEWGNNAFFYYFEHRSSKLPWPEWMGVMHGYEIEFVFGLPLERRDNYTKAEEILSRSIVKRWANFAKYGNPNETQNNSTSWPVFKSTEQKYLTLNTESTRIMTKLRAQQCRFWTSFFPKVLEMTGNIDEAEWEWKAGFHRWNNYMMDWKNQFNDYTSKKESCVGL
UniProt P05067, whole entry: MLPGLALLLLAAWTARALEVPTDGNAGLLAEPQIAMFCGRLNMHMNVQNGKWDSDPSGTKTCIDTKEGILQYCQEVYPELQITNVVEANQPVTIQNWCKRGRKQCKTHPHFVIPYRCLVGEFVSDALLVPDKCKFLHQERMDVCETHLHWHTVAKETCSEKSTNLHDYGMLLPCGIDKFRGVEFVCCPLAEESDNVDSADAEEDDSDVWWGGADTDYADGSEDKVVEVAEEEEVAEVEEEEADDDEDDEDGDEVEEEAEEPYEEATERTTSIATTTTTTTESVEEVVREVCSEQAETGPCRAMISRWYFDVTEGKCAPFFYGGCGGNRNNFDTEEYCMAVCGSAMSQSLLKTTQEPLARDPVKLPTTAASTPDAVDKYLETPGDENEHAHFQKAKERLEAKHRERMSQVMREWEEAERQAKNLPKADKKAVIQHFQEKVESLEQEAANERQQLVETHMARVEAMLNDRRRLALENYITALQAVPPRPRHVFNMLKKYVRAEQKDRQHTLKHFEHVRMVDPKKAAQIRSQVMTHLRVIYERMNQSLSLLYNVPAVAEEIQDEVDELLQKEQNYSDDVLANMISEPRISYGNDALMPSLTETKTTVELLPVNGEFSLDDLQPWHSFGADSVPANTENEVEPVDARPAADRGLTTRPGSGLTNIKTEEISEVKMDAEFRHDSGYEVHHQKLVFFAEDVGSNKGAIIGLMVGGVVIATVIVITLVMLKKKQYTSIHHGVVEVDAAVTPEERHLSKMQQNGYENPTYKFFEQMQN
UniProt P81908, whole entry: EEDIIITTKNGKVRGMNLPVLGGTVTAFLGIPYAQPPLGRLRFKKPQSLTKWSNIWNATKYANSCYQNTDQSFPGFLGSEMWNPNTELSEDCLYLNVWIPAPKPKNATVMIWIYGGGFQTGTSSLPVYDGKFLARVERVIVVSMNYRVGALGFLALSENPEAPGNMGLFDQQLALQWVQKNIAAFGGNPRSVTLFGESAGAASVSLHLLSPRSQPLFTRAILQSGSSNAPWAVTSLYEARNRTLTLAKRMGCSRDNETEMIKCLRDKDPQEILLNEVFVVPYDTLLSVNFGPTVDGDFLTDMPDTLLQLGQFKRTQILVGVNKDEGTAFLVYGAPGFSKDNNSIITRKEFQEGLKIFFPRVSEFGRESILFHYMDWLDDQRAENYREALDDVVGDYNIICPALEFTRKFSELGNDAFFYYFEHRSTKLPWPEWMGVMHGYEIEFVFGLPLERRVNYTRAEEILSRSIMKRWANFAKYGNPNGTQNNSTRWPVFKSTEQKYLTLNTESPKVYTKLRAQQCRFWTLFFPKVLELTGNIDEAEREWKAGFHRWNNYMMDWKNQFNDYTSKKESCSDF

Test [1] has as its target Cholinesterase (Homo sapiens, UniProt P06276). In words: Inhibition of BuChE in human plasma using BTC as substrate at 10 uM preincubated with enzyme for 5 mins followed by substrate addition for 5 mins by Ellman's method relative to control. Type of test: cell-free. Particulars: time 10.0 min. Background: DTNB colorimetry detects thiols as they appear.
Test [2] concerns the target Amyloid-beta precursor protein (Homo sapiens) (UniProt P05067). The experiment in a line: Inhibition of amyloid beta (1 to 42) (unknown origin) self aggregation at 10 uM incubated for 24 to 48 hrs by Thioflavin-T based fluorometric assay. Particulars: time 24-48 hrs.
Test [3] deals with Cholinesterase (Equus caballus) (UniProt P81908). In words: Reversible inhibition of equine serum BuChE using BTC as substrate at 10XIC50 preincubated with 100-fold diluted enzyme for 120 mins followed by substrate addition and measured after 5 mins by 100-fold dilution assay. The format is cell-free. Particulars: time 125.0 min.

The structures appear in SMILES notation. Activity calls are given as the source filed them. No cut-off for these calls is given here.

In the case of `CC(C)(C)OC(=O)N1CCCC(CNCCOc2cccc3c2ccn3S(=O)(=O)c2cccc3ccccc23)C1` (stereo not drawn), the inhibition was > 50% in test [1] and < 20% in test [2]. Moreover, in test [3], the inhibition entry was “Active”.
For `CC(=O)Oc1ccc(CNCCOc2cccc3c2ccn3S(=O)(=O)c2ccccc2)cc1`, the inhibition is > 50% in test [1] and < 20% in test [2].
The corresponding values for `O=S(=O)(c1ccccc1)n1ccc2c(OCCNCC3CCCC3)cccc21` are > 50% and < 20%.
The matching figures for `O=S(=O)(c1ccccc1)n1ccc2c(OCCNCc3ccccc3)cccc21`: > 50% and 45.9%.
As for `CC(C)(C)OC(=O)N1CCCC(CNCCOc2cccc3c2CCN3S(=O)(=O)c2ccccc2)C1` (stereo not drawn), the inhibition in test [1] was > 50%; in test [2], < 20%.
As for `O=S(=O)(c1ccccc1)n1ccc2c(OCCNCc3cc(Cl)cc(Cl)c3)cccc21`, the inhibition in test [1] is < 50%; in test [2] it was < 20%.
For the compound `CC(C)(C)OC(=O)N1CCCC(CNCCOc2cccc3c2ccn3S(=O)(=O)c2ccccc2)C1` (stereo not drawn), the inhibition was > 50% in test [1] and 59.2% in test [2]. For the same compound, in test [3], the inhibition entry is “Active”.
In the case of `O=S(=O)(c1ccccc1)n1ccc2c(OCCNCc3ccccc3Cl)cccc21`, the values for the inhibition in test [1] and in test [2] were > 50% and < 20%, respectively.
Take `CC(=O)Oc1cccc(CNCCOc2cccc3c2ccn3S(=O)(=O)c2ccccc2)c1`: the inhibition in test [1] was > 50%; in test [2], < 20%.
The corresponding values for `O=S(=O)(c1ccccc1)N1CCc2c(OCCNCc3ccccc3)cccc21` are < 50% and < 20%.
The corresponding values for `O=S(=O)(c1ccccc1)n1ccc2c(OCCNCC3CCCCC3)cccc21` are > 50% and 53.5%.
The matching figures for `Cc1cccc(CNCCOc2cccc3c2ccn3S(=O)(=O)c2ccccc2)c1`: > 50% and 33.3%.
As for `O=S(=O)(c1cccc2ccccc12)n1ccc2c(OCCNCc3ccccc3)cccc21`, the results for the inhibition in test [1] and in test [2] were < 50% and 20.5%, respectively.

As a reminder, the inhibition is the relative decrease from the control value, in per cent.
